Measured values taken from US6413935B1, “Induction of immune response against desired determinants” (priority 1993, dated 2002).

Amino acid sequences for entries named in this document (tags omitted). Residues count along the entry.
UniProt P01910, 24-256: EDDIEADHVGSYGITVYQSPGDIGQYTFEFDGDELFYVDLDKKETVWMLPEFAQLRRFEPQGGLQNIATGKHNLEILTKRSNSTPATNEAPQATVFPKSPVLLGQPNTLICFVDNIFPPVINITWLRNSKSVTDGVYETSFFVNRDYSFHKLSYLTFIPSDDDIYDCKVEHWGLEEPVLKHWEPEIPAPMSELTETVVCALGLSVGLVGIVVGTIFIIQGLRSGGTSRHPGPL
UniProt P06343, 28-263: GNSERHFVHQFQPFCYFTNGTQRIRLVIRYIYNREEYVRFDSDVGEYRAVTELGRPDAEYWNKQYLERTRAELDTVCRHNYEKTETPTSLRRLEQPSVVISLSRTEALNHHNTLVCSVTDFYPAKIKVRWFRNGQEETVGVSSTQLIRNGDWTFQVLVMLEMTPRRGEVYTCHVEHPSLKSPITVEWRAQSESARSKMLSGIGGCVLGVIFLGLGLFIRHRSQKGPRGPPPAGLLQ
UniProt P79483, 30-266: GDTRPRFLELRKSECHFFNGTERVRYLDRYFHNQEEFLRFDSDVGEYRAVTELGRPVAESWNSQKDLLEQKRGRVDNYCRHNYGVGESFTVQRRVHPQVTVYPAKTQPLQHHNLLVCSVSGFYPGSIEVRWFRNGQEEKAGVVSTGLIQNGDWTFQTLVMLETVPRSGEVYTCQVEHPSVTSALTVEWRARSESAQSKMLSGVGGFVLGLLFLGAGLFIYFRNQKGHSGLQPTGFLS

Key:
[1] = target: T1, IA^k (Mus musculus, UniProt P01910+P06343); assay type: binding; conditions: read-out: Capacity to bind purified IA^k, IC50
T1 construct: Various cell lines were used as sources of purified human and mouse class II molecules; endogenous in cells; host or cells: CH12

[2] = target: DR3 (Homo sapiens, UniProt P01903+P01911, A100K/A102G/A103R/A169T/F55Y/I96L/K41T/L162R/M171V/P40S/Q125H/Q178H/Q39Y/R42S/S66N/T106N/T262R/W38E/Y61H); conditions: read-out: Binding capacity DR3, IC50
[3] = target: DR4w4 (Homo sapiens, UniProt P01903+P01911, A100K/A169T/F76Y/I96L/K127E/L162R/M171V/N62H/P40V/Q125Y/R42H/S133A/S149N/S66Y/V115G/V209L/W38E); conditions: read-out: Binding capacity DR4w4, IC50
[4] = target: DR52a (Homo sapiens, UniProt P01903+P79483); conditions: read-out: Binding capacity DR52a, IC50

aKFVAAWTLKAAa [Peptide 1024.03]
IC50 [1]: > 10 µM | IC50 [2]: 1470 nM | IC50 [3]: 2 nM | IC50 [4]: 797 nM
